Data: patent US20150159134A1, “METHOD FOR PRODUCING RETINAL PIGMENT EPITHELIAL CELLS” (PFIZER LIMITED, priority 2013, published 2015)

System: Shef-1 hESCs
Experiment: Alternative BMP pathway activators, MITF expression (immunostaining, qPCR)
Format: cell-based, human
Details: Day 13; BMPs Day 6-9: 50-200 ng/ml BMP4/7 heterodimer, 200 ng/ml BMP4, 300 ng/ml BMP7, 100 ng/ml BMP2/6
Experimental: Shef-1 hESCs were seeded onto Matrigel coated 96-well plates at a density of 125000 cells/cm^2. […] On Day 6, 50-200 ng/ml BMP4/7 heterodimer or 200 ng/ml BMP4, 300 ng/ml BMP7, 100 ng/ml BMP2/6 were added for a period of 3 days. On Day 9, BMPs were withdrawn and cells maintained in DMEM KSRXF alone for 4 days. On Day 13, MITF expression was tested by Immunostaining and qPCR analysis.

B1: BMP2/6: BMP2/6 heterodimer, BMP pathway activator (protein, UniProt P12643 283-396; P22004 375-513, looked up)
Bone morphogenetic protein 2: QAKHKQRKRLKSSCKRHPLYVDFSDVGWNDWIVAPPGYHAFYCHGECPFPLADHLNSTNHAIVQTLVNSVNSKIPKACCVPTELSAISMLYLDENEKVVLKNYQDMVVEGCGCR
Bone morphogenetic protein 6: SASSRRRQQSRNRSTQSQDVARVSSASDYNSSELKTACRKHELYVSFQDLGWQDWIIAPKGYAANYCDGECSFPLNAHMNATNHAIVQTLVHLMNPEYVPKPCCAPTKLNAISVLYFDDNSNVILKKYRNMVVRACGCH
modifications: heterodimer
- MITF expression (immunostaining and qPCR): induced expression of MITF to a similar level
